From patent US20020006903A1

Molecular target: T cell receptor of the HLA-A2-restricted, HTLV-1 Tax11-19-specific CTL clone A6
Assay: flow cytometry on A6 cells

peptide-tethered tax-β2M HLA-A2/Ig complex (from UniProt P61769 21-119) (peptide-MHC)
mean channel fluorescence (MCF): 4000
